Values quoted from earlier work in patent US10962518B2, “Dissolution test for sensitive drugs” (ROYAN INSTITUTE, priority 2017, dated 2021).

Conditions: PBS buffer pH = 7.4; at 37° C.; cited from earlier work

Insulin
tstability of drug: 2 h
